For this test, the target named is T1, PTP1B (Homo sapiens, UniProt P18031).
T1 construct: gene PTPN1

The chains behind the UniProt entries cited, without tags or fusion partners. Where a name states a change or a piece, a line headed by the entry shows the natural chain unless it says otherwise.
UniProt P18031: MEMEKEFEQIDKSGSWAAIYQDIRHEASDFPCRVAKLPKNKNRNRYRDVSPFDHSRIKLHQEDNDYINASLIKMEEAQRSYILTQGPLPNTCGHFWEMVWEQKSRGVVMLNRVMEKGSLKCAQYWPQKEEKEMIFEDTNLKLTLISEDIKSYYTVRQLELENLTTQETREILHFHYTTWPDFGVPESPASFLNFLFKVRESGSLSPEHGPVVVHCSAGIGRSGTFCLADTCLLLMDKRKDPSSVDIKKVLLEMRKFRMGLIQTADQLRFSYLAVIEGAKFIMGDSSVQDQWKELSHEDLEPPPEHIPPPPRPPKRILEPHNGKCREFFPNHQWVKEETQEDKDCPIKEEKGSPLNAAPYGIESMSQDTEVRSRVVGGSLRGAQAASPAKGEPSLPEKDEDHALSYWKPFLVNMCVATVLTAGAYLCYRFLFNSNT

On to `Cc1cc(=O)oc2c(F)c(OP(=O)(O)O)c(F)cc12` [DiFMUP], for which the Km is 4 µM.

For the origin of these results see publication PMC10716126, “Enzyme mechanistic studies of NMA1982, a protein tyrosine phosphatase and potential virulence factor in Neisseria meningitidis” (Scientific Reports, 2023).
